From publication PMC6499816, “Molecular determinants regulating selective binding of autophagy adapters and receptors to ATG8 proteins” (Nature Communications, 2019)

The chains behind the UniProt entries cited, without tags or fusion partners. Where a name states a change or a piece, a line headed by the entry shows the natural chain unless it says otherwise.
UniProt Q9BXW4: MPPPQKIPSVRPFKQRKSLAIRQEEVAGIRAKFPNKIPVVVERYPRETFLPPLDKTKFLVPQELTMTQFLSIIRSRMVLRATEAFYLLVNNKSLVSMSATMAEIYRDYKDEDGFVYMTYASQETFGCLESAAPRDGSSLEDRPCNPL
UniProt Q9H0R8, whole entry: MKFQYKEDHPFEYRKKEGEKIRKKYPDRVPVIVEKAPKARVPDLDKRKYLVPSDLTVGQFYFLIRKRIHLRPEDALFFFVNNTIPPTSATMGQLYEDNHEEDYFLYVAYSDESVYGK
UniProt P60520, whole entry: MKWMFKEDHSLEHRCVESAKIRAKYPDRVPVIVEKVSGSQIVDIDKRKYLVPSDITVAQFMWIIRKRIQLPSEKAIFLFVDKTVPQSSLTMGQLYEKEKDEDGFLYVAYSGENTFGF

Assays:
Conditions in all cases: non linear regression, n=2 independent experiments
LC3A = molecular target: T1, LC3A (Homo sapiens, UniProt Q9H492); test: Bio-layer interferometry (BLI), LIR peptide binding to LC3A
T1 construct: GST (followed by 3C protease site) (N); made in house; host or cells: bacteria (E. coli BL21 (DE3) pLysS is stated for the GST-ATG8 proteins of the overlay assay)
Procedure: (§1) For recombinant protein expression in bacteria, a modified plasmid of pGEX-6P2 (GE Healthcare) (referred to as pAL) containing an N-terminal […] followed by a 3C protease cleavage site was used.
(§2) Expression was induced by the addition of 0.5 mM IPTG at OD600 = 0.6 and cells were incubated at 25 °C overnight or at 37 °C for 5 h. Harvested cells were lysed in 50 mM Tris-HCl, pH 8.0, 500 mM NaCl, 0.1% Triton X-100, 0.4 mM 4-(2-aminoethyl)-benzenesulfonylfluoride HCl (AEBSF), and 15 µg/ml benzamidine. Fusion protein was batch adsorbed onto Glutathione-Sepharose 4B beads (GE Healthcare). After five washes with wash buffer (50 mM Tris, pH 8.0, 250 mM NaCl, 0.4 mM AEBSF, and 15 µg/ml benzamidine), fusion proteins were eluted in 50 mM Tris, pH 8.0, 2 mM L-glutathione reduced, 0.4 mM AEBSF, and 15 µg/ml benzamidine.
(§3) The biosensor tip surface immobilized with a ligand is incubated with an analyte in solution, resulting in an increase in optical thickness at the biosensor tip and a wavelength shift, which is a direct measure of the change in thickness. […] Ligand-loaded SA biosensors were then incubated with different concentrations of ATG8. All binding experiments were performed in solid-black 96-well plates containing 200 μl of solution (25 mM Tris, pH 7.5, 150 mM NaCl, 0.5 mM TCEP, 0.1% Tween-20, 1 mg/ml bovine serum albumin (BSA)) in each well at 25 °C with an agitation speed of 1000 rpm. Each measurement was repeated two to five times.
(§4) Peptides were synthesized using FMOC (fluorenylmethoxycarbonyl) solid-phase peptide chemistry by the Francis Crick Peptide Chemistry Technology Platform and are listed in Supplementary Table 2.

LC3B = molecular target: T2, LC3B (Homo sapiens, UniProt Q9GZQ8); test: BLI, LIR peptide binding to LC3B
T2 construct: GST (followed by 3C protease site) (N); made in house; host or cells: bacteria (E. coli BL21 (DE3) pLysS is stated for the GST-ATG8 proteins of the overlay assay)
Procedure: as §1, §2, §3, §4

LC3C = molecular target: T3, LC3C (Homo sapiens, UniProt Q9BXW4); test: BLI, LIR peptide binding to LC3C
T3 construct: GST (followed by 3C protease site) (N); made in house; host or cells: bacteria (E. coli BL21 (DE3) pLysS is stated for the GST-ATG8 proteins of the overlay assay)
Procedure: as §1, §2, §3, §4

GABARAP = molecular target: T4, GABARAP (Homo sapiens, UniProt O95166); test: BLI, LIR peptide binding to GABARAP
T4 construct: GST (followed by 3C protease site) (N); made in house; host or cells: bacteria (E. coli BL21 (DE3) pLysS is stated for the GST-ATG8 proteins of the overlay assay)
Procedure: as §1, §2, §3, §4

GABARAPL1 = molecular target: T5, GABARAPL1 (Homo sapiens, UniProt Q9H0R8); test: BLI, LIR peptide binding to GABARAPL1
T5 construct: GST (followed by 3C protease site) (N); made in house; host or cells: bacteria (E. coli BL21 (DE3) pLysS is stated for the GST-ATG8 proteins of the overlay assay)
Procedure: as §1, §2, §3, §4

GABARAPL2 = molecular target: T6, GABARAPL2 (Homo sapiens, UniProt P60520); test: BLI, LIR peptide binding to GABARAPL2
T6 construct: GST (followed by 3C protease site) (N); made in house; host or cells: bacteria (E. coli BL21 (DE3) pLysS is stated for the GST-ATG8 proteins of the overlay assay)
Procedure: as §1, §2, §3, §4

CC(C)C[C@H](NC(=O)[C@H](Cc1c[nH]cn1)NC(=O)[C@@H](NC(=O)[C@H](Cc1c[nH]c2ccccc12)NC(=O)[C@H](CC(=O)O)NC(=O)[C@H](CC(=O)O)NC(=O)[C@H](CC(=O)O)NC(=O)CNC(=O)CNC(=O)[C@H](CO)NC(=O)[C@H](CS)NC(=O)[C@@H](N)CC(N)=O)[C@@H](C)O)C(=O)N[C@@H](CO)C(=O)N[C@@H](CO)C(=O)N[C@@H](CCCCN)C(=O)N[C@@H](CCC(=O)O)C(=O)N[C@H](C(=O)N[C@@H](CC(=O)O)C(=O)N1CCC[C@H]1C(=O)N[C@@H](CO)C(=O)N[C@H](C(=O)O)[C@@H](C)O)C(C)C [p62 WT]
Rmax (best-fit value, theoretical response maxium) (LC3A): 2.263
Rmax (best-fit value, theoretical response maxium) (LC3B): 1.787
Rmax (best-fit value, theoretical response maxium) (LC3C): 2.622
Rmax (best-fit value, theoretical response maxium) (GABARAP): 2.373
Rmax (best-fit value, theoretical response maxium) (GABARAPL1): 3.016
Rmax (best-fit value, theoretical response maxium) (GABARAPL2): 2.117
